Assay [1] deals with T1, recombinant HSF1 DNA-binding domain (DBD) (Homo sapiens, UniProt Q00613).
T1 sequence (Q00613 15-120): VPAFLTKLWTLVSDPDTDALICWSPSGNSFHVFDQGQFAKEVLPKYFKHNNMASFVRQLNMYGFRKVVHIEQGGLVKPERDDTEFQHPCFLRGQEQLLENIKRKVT
Nature of the assay: Differential Scanning Fluorimetry (DSF), HSF1 DBD melting temperature. As to conditions: read-out: ΔTm.

The target in assay [2] is T2, purified recombinant human HSF1 (HSF1 DNA binding domain) (Homo sapiens, UniProt Q00613).
T2 sequence (Q00613 15-120): T1 sequence (Q00613 15-120)
Briefly: Melting temperature of HSF1 DBD with HSF1 degrader compounds (Sypro orange). As to conditions: read-out: ΔTm (° C.). On the procedure: The melting temperature (ΔTm) for purified recombinant human HSF1 (HSF1 DNA binding domain) was determined in the presence of HSF1 degrader compounds shown in Table 5 and compared to the solvent DMSO. Sypro orange dye was added to the HSF1 DBD (5 micromolar final concentration) in buffer, mixed and distributed to wells in 384 well microtiter plates. HSF1 degrader compound (12.5 micromolar) or DMSO solvent was added to three replicate wells per compound concentration, mixed and plates loaded into a Quant Studio thermnocycler and run on a temperature gradient from 25° C. to 85° C. with increments of 0.5° C. steps. Melting curves were obtained and analyzed using the ThermnoFisher Shift Software 1.4 fitted with a Boltzmann equation to determine the change in melting temperature of the protein in the presence of DMSO as compared to compound. The difference in the melting temperature under these two conditions was assigned as the change in melting temperature of ΔTm.

A word on the ΔTm: it is the shift of the melting midpoint relative to a reference.

In the case of `CN(C)CCc1ccc(NC(=O)Nc2ccc(C#N)cc2)cc1S(=O)(=O)C(F)(F)F` [Compound 287, 1-(4-cyanophenyl)-3-(4-(2-(dimethylamino)ethyl)-3-((trifluoromethyl)sulfonyl)phenyl)urea], the ΔTm at 25 µM in assay [1] amounted to 4.7 °C. For the same compound, in assay [2], the ΔTm at 12.5 µM stood at 1.3 °C.

For the origin of these results see patent publication US20240317727A1 (Duke University, priority 2018, published 2024).
